# Source: PubChem BioAssay (Broad Institute)
# A selection: hits, their analogues and other compounds. The true share with any hit is near 1.7%.
# CAL PDZ FP-1 = inhibitors of human CAL PDZ peptide binding. Q9HD26. inhibition, % at 24.9 µM. AID 602252. purified CAL PDZ, TMR-peptide fluorescence polarization, 1 h. 300,000 tested, 0.92% active;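 active means mean inhibition of at least 30% with at least half of replicates also reaching 30%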;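 further: 0% = DMSO neutral control and 100% = excess unlabeled competitor peptide PRC23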
# CAL PDZ FP-2 = human CAL PDZ-peptide interaction inhibition. AID 504414. Q9HD26. purified CAL PDZ, TMR-peptide fluorescence polarization, 1 h. 330,000 tested, 0.02% active. inhibition, % at 20 µM;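 active means highest replicate inhibition of at least 40%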;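 further: plate controls were DMSO neutral control wells for no effect and unlabeled competitor peptide control wells for full effect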
#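 Control set: unlabelled peptide and DMSO controls / Material: purified CerCALP PDZ construct / Timing: 1 h incubation at room temperature before polarization reading / Doses: 20 µM, one dose / Detection: fluorescence polarization (mP)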
# CDK5 inh = CDK5/p35 (human) kinase inhibition; Recombinant CDK5/p35, ADP-Glo luminescence, 60 min; inhibition, % at 10 µM; 330,000 tested, 0.01% active; AID 488839;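 active means highest replicate inhibition of at least 50% and at least 75% of replicates reaching 50%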;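 further: plate controls were DMSO neutral control for no effect and GW8510 at 10 µM for full effect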
# DYRK1A inh = inhibitors of rat Dyrk1A kinase; ADP-Glo luminescence, NFATc1 peptide; inhibition, % at 12.5 µM; 310,000 tested, 0.43% active; Q63470; in the data active means inhibition above about 50%;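 further: plate controls were vehicle with enzyme for no effect and no enzyme for full effect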
# Yeast UUG start = modulators of yeast start codon fidelity, primary screen, whole organism, S. cerevisiae, single point, plate reader | AID 602363, 2012 | actives 0.13% (n = 350,000) | activity score, % at 18.7 µM | S. cerevisiae UUG-firefly luciferase reporter, luminescence/redox ratio;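 active means replicate mean at a twofold rise or more, about +100% in these data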;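 further: firefly luciferase made from a UUG start codon reports start codon fidelity; reporter light over untreated wells divided by growth signal over untreated wells; some hits fall short of that in this replicate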
# dFosB activator = activators of mouse delta FosB homodimer; P13346; purified delta FosB, TAMRA-CDK5 oligo fluorescence polarization; percent of positive-control signal above neutral wells; activation, % at 25 µM; 340,000 tested, 0.99% active; AID 493131;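 active means mean activation above about 17%, with every replicate also reaching it, limit read from the data, passing the limit was not always enough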
# Active calls of the source: *; · = not tested or not shown; ! = not confirmed by another sample.
no. | canonical_smiles | CAL PDZ FP-1 | CAL PDZ FP-2 | CDK5 inh
1 | CCS(=O)(=O)Nc1cc(OC)c(OC)cc1Cc1nccc2cc(OC)c(OC)cc12 | 65* | -1 | -2
2 | CCCNC(=O)Nc1cc(OC)c(OC)cc1Cc1nccc2cc(OC)c(OC)cc12 | -4 | -2 | 1
3 | OC[C@H]1[C@@H](c2ccc(/C=C/c3ccccc3)cc2)[C@@H]2CN(Cc3cccnc3)CCCCN12 | · | · | ·
4 | COc1ccc(S(=O)(=O)/N=C2\C=C(Nc3ccc(O)cc3)C(=O)c3ccccc32)cc1 | -3 | -3 | 5
5 | O=C(O)c1ccc(S(=O)(=O)/N=C2\C=C(Nc3ccccc3F)C(=O)c3ccccc32)cc1 | -4 | 1 | 4
6 | COc1cccc(OC)c1C(=O)NNC(=O)c1ccc(F)cc1 | 68* | -1 | -3
7 | COc1cc(CC(=O)NCC(C)(C)N2CCOCC2)cc(OC)c1OC | 55* | 0 | 0
8 | COc1ccc(S(N)(=O)=O)cc1C(=O)NCC(C)(C)N1CCOCC1 | -2 | -2 | 0
9 | CCOC(=O)C1(Cc2ccc(OC)cc2)CCN(C(=O)CCc2cnccn2)CC1 | 76* | 0 | 0
10 | N/C(=N\N=Cc1ccc2c(c1)OCO2)NN=Cc1ccc2c(c1)OCO2 | -3 | 3 | -1
11 | O=C(CNC(=O)c1ccccc1F)N/N=C/c1ccc2c(c1)OCO2 | -3 | -2 | 0
12 | O=C(CNC(=O)c1ccccc1Cl)N/N=C/c1ccc2c(c1)OCO2 | 96* | -2 | 2

no. | DYRK1A inh | Yeast UUG start | dFosB activator
1 | 4 | -3 | -10
2 | 7 | -6 | -11
3 | · | -23 | ·
4 | 32 | -13 | -9
5 | 57* | -37 | -16
6 | · | · | 4
7 | -9 | -1 | -3
8 | 0 | -9 | -5
9 | -4 | 22 | -2
10 | 4 | 0 | 42*
11 | -2 | -30 | 3
12 | -5 | -11 | -5

# Other structures:
no. | canonical_smiles | CAL PDZ FP-1 | CAL PDZ FP-2 | CDK5 inh
13 | N/C(=N\N=C/c1ccc(Br)cc1)N/N=C\c1ccc(Br)cc1 | -1 | 1 | -6
14 | N/C(=N\N=C/c1ccc(F)cc1)N/N=C\c1ccc(F)cc1 | 0 | -6 | 1
15 | N#C[C@@H]1[C@@H](c2ccc(-c3cccnc3)cc2)[C@H](CO)N1C(=O)C1CCC1 | · | · | ·
16 | CN(C)S(=O)(=O)Oc1ccc(C(=O)Nc2cccc(C(F)(F)F)c2)cc1 | 38* | 0 | 0
17 | CN(C)S(=O)(=O)Oc1ccc(C(=O)Nc2cccc(Cl)c2)cc1 | -8 | 0 | 0
18 | COc1ccc(/C=C\C(=O)NCC(=O)N/N=C/c2cccc(OC)c2O)cc1 | 4 | 0 | 3
19 | COc1ccccc1/C=C/C(=O)NCC(=O)N/N=C/c1ccccc1 | -2 | -3 | 0
20 | COc1cccc(/C=N/NC(=O)CNC(=O)/C=C\c2ccccc2)c1O | -3 | -2 | -1
21 | CC(C)(C)c1ccc(C(=O)NCCC(=O)NNC(=O)COc2ccc(F)cc2)cc1 | 33* | 0 | 0
22 | O=C(CCNC(=O)c1ccc(Br)cc1)NNC(=O)COc1ccccc1F | 0 | 0 | 3
23 | CC(NC(=O)COc1ccccc1)C(=O)N1CCN(c2ccc(F)cc2)CC1 (configuration not stated) | 73* | 0 | 0
24 | S=C1NC(c2ccccc2)=CC(c2ccccc2)N1 (configuration not stated) | 5 | 0 | 3

no. | DYRK1A inh | Yeast UUG start | dFosB activator
13 | -2 | -15 | 1
14 | · | -20 | 26*
15 | · | -2 | ·
16 | -6 | · | -12
17 | 3 | · | -2
18 | -6 | -13 | 47*
19 | · | · | -9
20 | -5 | -3 | 58*
21 | 1 | -9 | 4
22 | 0 | · | -5
23 | -4 | 6 | -12
24 | 4 | · | -5

# Entries of single compounds, looked up by structure:
# Profile of OC[C@H]1[C@@H](c2ccc(/C=C/c3ccccc3)cc2)[C@@H]2CN(Cc3cccnc3)CCCCN12 : CAL PDZ FP-1 = ·; CAL PDZ FP-2 = ·; CDK5 inh = ·; DYRK1A inh = ·; Yeast UUG start = -23; dFosB activator = ·
# Profile of N/C(=N\N=C/c1ccc(F)cc1)N/N=C\c1ccc(F)cc1 : CAL PDZ FP-1 = 0; CAL PDZ FP-2 = -6; CDK5 inh = 1; DYRK1A inh = ·; Yeast UUG start = -20; dFosB activator = 26*

# The list goes on:
no. | canonical_smiles | CAL PDZ FP-1 | CAL PDZ FP-2 | CDK5 inh
25 | N#CC1C(=O)NC(c2ccccc2)=CC1c1ccccc1 (configuration not stated) | 110* | -2 | -3
26 | CCc1ccccc1NC(=O)CSC1=C(C#N)C(c2ccc(O)c(OC)c2)C2=C(CCCC2=O)N1 (configuration not stated) | 0 | -2 | 0
27 | COc1cc(C2C(C#N)=C(SC)NC3=C2C(=O)CCC3)ccc1O (configuration not stated) | 89* | -1 | -2
28 | COCc1[nH][nH]c(=O)c1/C=N/N1CCOCC1 | 43* | -1 | -3
29 | COCc1[nH][nH]c(=O)c1C=Nc1ccccc1 | 1 | -3 | -1
30 | O=C(O)CSc1nc2c(c(C(F)(F)F)n1)CCCC2 | 78*! | 0 | -4

no. | DYRK1A inh | Yeast UUG start | dFosB activator
25 | -4 | 4 | -2
26 | -5 | -11 | -8
27 | 0 | 5 | 2
28 | -4 | · | -4
29 | -14 | -23 | -2
30 | 0 | -26 | 3
